Results from patent publication US20240269230A1 (priority 2020, published 2024).
Where two headings read alike, the source gives them in different places.

Sequences of proteins named here, by UniProt entry; tags and fusion partners are left off. A change or cut given only in a name is not applied to a line headed by its entry.
UniProt P33534: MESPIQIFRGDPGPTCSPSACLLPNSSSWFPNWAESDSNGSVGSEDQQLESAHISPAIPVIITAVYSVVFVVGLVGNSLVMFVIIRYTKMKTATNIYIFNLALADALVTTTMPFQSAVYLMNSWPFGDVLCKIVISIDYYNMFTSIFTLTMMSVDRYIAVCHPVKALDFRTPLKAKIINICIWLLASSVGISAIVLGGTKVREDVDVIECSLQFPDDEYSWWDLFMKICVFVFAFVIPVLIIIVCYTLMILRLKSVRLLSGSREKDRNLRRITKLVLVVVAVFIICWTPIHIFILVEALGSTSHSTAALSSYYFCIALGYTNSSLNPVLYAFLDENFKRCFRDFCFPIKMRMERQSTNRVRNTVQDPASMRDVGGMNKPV

Legend:
kOR [1] = target: T1, kOR (Mus musculus, UniProt P33534); type: binding; details: read-out: Ki value
kOR [2] = target: T1, kOR; type: cell-based; details: read-out: EC50 of beta arrestin recruitment
kOR [3] = target: T1, kOR; type: cell-based; details: read-out: EC50 of kOR activation (cAMP)

dynorphin A 1-13
Ki (kOR [1]): 0.28 nM | EC50 (kOR [2]): 183 nM | EC50 (kOR [3]): 14 nM
